Results published in patent US9155706B2, “Pharmaceutical composition” (Novartis AG, priority 2010, dated 2015).

Assay: Single-dose (Day 1) pharmacokinetics of Compound tablets, first-time-in-human study
Settings: 0.125 mg, single dose Day 1, oral tablets, fasting, individual values

Structure (SMILES): CC(=O)Nc1cccc(-n2c(=O)n(C3CC3)c(=O)c3c(Nc4ccc(I)cc4F)n(C)c(=O)c(C)c32)c1 [Compound, N-{3-[3-cyclopropyl-5-(2-fluoro-4-iodo-phenylamino)-6,8-dimethyl-2,4,7-trioxo-3,4,6,7-tetrahydro-2H-pyrido[4,3-d]pyrimidin-1-yl]phenyl}acetamide]
- Cmax (human, plasma, po, Cmax): 0.62 ng/mL
- C24: 0, 0 ng/mL
